Assay results from ChEMBL document CHEMBL1146020, “Phosphonothioate and fluoromethylene phosphonate analogues of cyclic phosphatidic acid: Novel antagonists of lysophosphatidic acid receptors” (2006).

Sequences of proteins named here, by UniProt entry; tags and fusion partners are left off. A change or cut given only in a name is not applied to a line headed by its entry.
UniProt Q92633: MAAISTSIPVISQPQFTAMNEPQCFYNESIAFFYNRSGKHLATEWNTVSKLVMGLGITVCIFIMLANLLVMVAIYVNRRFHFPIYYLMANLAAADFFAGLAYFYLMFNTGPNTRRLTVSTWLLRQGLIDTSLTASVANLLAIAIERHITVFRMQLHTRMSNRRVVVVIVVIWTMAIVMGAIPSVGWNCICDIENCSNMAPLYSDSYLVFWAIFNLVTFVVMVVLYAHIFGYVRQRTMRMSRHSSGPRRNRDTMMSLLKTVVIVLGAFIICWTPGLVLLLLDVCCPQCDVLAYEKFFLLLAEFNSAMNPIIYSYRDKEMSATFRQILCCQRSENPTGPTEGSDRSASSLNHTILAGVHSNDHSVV
UniProt Q9UBY5: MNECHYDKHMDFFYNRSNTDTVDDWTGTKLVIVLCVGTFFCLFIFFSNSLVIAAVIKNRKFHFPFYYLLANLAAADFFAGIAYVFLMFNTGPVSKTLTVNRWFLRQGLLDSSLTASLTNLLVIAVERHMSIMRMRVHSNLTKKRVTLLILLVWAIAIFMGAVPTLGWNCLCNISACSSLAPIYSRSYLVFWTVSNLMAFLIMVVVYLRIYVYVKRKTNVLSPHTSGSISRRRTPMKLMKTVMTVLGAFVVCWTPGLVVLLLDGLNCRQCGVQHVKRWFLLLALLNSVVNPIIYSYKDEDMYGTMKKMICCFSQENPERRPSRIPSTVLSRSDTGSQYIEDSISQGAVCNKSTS
UniProt Q9HBW0, whole entry, looked up: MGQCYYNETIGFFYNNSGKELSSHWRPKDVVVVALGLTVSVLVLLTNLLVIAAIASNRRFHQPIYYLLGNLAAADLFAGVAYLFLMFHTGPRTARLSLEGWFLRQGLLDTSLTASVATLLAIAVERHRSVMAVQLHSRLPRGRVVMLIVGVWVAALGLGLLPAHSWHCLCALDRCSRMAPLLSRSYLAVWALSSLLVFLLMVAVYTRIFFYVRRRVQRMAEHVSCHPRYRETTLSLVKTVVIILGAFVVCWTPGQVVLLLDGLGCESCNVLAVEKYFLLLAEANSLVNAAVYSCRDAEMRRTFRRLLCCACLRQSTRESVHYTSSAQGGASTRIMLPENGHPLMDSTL

Experiments:
[1] = Dissociation constant, pKa of the compound
[2] = target: T1, Lysophosphatidic acid receptor 1 (Homo sapiens, UniProt Q92633); test: Activity at human LPA1 receptor expressed in RH7777 cells by calcium mobilization assay
[3] = target: T2, Lysophosphatidic acid receptor 3 (Homo sapiens, UniProt Q9UBY5); test: Activity at human LPA3 receptor expressed in RH7777 cells by calcium mobilization assay
[4] = target: T1, Lysophosphatidic acid receptor 1; test: Activity at human LPA1 receptor in RH7777 cells at 30 uM by calcium mobilization assay
[5] = target: T3, Lysophosphatidic acid receptor 2 (Homo sapiens, UniProt Q9HBW0); test: Activity at human LPA2 receptor in RH7777 cells at 30 uM by calcium mobilization assay
[6] = target: T2, Lysophosphatidic acid receptor 3; test: Activity at human LPA3 receptor in RH7777 cells at 30 uM by calcium mobilization assay
[7] = target: T3, Lysophosphatidic acid receptor 2; test: Activity at human LPA2 receptor expressed in RH7777 cells by calcium mobilization assay

Structure (SMILES)	pKa [1]	IC50 [2]	Ki [2]	IC50 [3]	Ki [3]	EC50 [4]	EC50 [5]	IC50 [5]	EC50 [6]	EC50 [2]	EC50 [7]	Ki [7]	EC50 [3]	IC50 [4]	IC50 [6]
CCCCCCCCCCCCCCCC(=O)OCC1CCP(O)(=S)O1 (configuration not stated)	6.48	799 nM	314 nM	2340 nM	1150 nM	Not Active	Not Active	Not Active	Not Active						
CCCCCCCCCCCCCCCCCC(=O)OC[C@@H]1CC(F)P(=O)(O)O1 (some centres not stated)	5.6	106 nM	60.7 nM	7720 nM	3170 nM	Not Active	Not Active	Not Active	Not Active						
CCCCCCCCCCCCCCCCCC(=O)OC[C@@H]1CC(F)(F)P(=O)(O)O1	4.62	Not Active						Not Active	Not Active	> 1940 nM	> 9.46 µM	Not Active	> 7.03 µM		
CCCCCCCCCCCCCCCCCC(=O)OCC1CCP(=O)(O)O1 (configuration not stated)	6.58					Not Active	Not Active	Not Active	Not Active					Not Active	Not Active
CCCCCCCCCCCCCCCCCC(=O)OCC1CCP(O)(=S)O1 (configuration not stated)	6.76	941 nM	403 nM	1270 nM	636 nM	Not Active	Not Active	Not Active	Not Active						
